Values quoted from earlier work as cited in patent US20100273655A1, “Composition and method for controlling invasive aquatic flora” (priority 2007, published 2010).

Test system: rainbow trout
Details: material safety data sheet

[Br-].[Br-].c1cc[n+]2c(c1)-c1cccc[n+]1CC2 [diquat dibromide, 6,7-dihydrodipyrido(1,2-a:2′,1′-c)pyrazinediium dibromide]
LC59, rainbow trout: 14.83 parts per million
